Experimental data: PubChem BioAssay AID1230 (PCMD, 2008)
The list shows a part of the results, in another mix than the full data. Active and inactive are the calls of the source.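 The calls were made as follows: active = signal enhancement of 30% or more; inactive = the rest.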

The chains behind the UniProt entries cited, without tags or fusion partners.
UniProt Q00987, whole entry: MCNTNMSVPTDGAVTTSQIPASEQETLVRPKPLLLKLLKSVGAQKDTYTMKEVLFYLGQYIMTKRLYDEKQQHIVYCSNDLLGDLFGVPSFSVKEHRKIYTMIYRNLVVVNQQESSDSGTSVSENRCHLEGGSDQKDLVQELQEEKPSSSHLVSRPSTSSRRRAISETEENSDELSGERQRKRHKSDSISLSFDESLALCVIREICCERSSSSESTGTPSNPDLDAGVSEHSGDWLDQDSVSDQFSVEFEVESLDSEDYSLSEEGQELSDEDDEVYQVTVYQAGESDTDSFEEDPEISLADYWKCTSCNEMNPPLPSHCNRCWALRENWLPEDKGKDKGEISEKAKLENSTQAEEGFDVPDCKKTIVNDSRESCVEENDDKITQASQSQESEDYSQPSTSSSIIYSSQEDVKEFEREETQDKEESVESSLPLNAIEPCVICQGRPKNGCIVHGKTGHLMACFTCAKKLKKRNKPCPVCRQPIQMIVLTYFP

Molecular target: E3 ubiquitin-protein ligase Mdm2 (Homo sapiens) (UniProt Q00987)
Experiment: MDM2-luciferase reporter signal enhancers, primary screen, MDM2 E3 ligase inhibitor project, cell-based, luminescence, 1536-well (AID 1230);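 also: luminescence tracks abundance of the self-degrading MDM2-luciferase fusion protein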
Details: cell-based MDM2 ubiquitination luciferase reporter, 2 h; at 5 µM; stronger effect = higher value; 0 = plate control, 100 = twice control, blank-subtracted
Outline: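 Assay system: stable mammalian line carrying autodegrading MDM2–luciferase fusion reporter; Input: 2000 cells in each well; Compound dosing: single-point 5 µM; Schedule: 2 h compound exposure at 37 °C; Signal: SteadyLite luciferase luminescence after 15 min room-temperature reagent incubation; Evaluation: % luminescence enhancement versus blank-corrected plate control mean; Benchmarks: plate controls and plate blanks.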

SMILES | signal enhancement
CN1CCN(CCOC(=O)C(O)(c2ccccc2)c2ccccc2)CC1 | inactive: -8.74%
COc1ccc(NC2CCN(C(=O)OC(C)(C)C)CC2)cc1 | inactive: -19%
O=C(NCC1(N2CCOCC2)CCCCC1)c1cc(=O)[nH]c2ccccc12 | inactive: -22.1%
O=C(NCC1(N2CCCCC2)CCCCC1)c1cccc([N+](=O)[O-])c1 | inactive: -3.35%
N#CC1(Nc2ccccc2)CCN(CCc2ccccc2)CC1 | inactive: -2.23%
COc1ccc(CN(CCCl)CCCl)cc1Cl | inactive: 14.6%
CN(C)c1cccc(C(=O)NCC2(N3CCCCC3)CCCCC2)c1 | inactive: -17.3%
CC(C)c1ccc(NC2CCN(C(=O)OC(C)(C)C)CC2)cc1 | inactive: -8.8%
O=C(NCC1(N2CCOCC2)CCCCC1)c1cc2ccccc2o1 | inactive: -14.3%
CCOC(=O)N1CCC(Nc2ccc(OC)cc2)CC1 | inactive: 3.89%
O=C(OC1CN2CCC1CC2)C1c2ccccc2Oc2ccccc21 (centres undefined) | inactive: -13.6%
N#CC1(Nc2ccccc2)CCN(Cc2ccccc2)CC1 | inactive: -8.12%
COc1ccc(C(=O)NCC2(N3CCCCC3)CCCCC2)c(OC)c1OC | inactive: -8.91%
Cc1ccc(OCC(C)C)c(CN(CCCl)CCCl)c1 | inactive: -0.41%
CCOc1ccc(C)cc1CN(CCCl)CCCl | inactive: -4%
COc1ccc(NC2CCN(CCc3ccccc3)CC2)c(OC)c1 | inactive: -11.8%
CCN1CCC(Nc2cccc(F)c2)CC1 | inactive: -3.14%
CN(C)c1ccc(C(=O)NCC2(N3CCCCC3)CCCCC2)cc1 | inactive: -7.83%
Fc1ccccc1NC1CCN(Cc2ccccc2)CC1 | inactive: -0.4%
CCC(CO)(C(=O)OC1CN2CCC1CC2)c1ccccc1 (centres undefined) | inactive: 6.71%
COc1cc(OC)cc(C(=O)NCC2(N3CCOCC3)CCCCC2)c1 | inactive: -13.4%
CCCOc1ccc(C)cc1CN(CCCl)CCCl | inactive: 5.36%
CCOc1ncccc1C(=O)NCC1(N2CCOCC2)CCCCC1 | inactive: -8.07%
CC(C)(C)OC(=O)N1CCC(Nc2ccccc2)CC1 | inactive: -5.83%
N/C(=N\O)c1c(N)no[n+]1[O-] | inactive: 3.8%
O=C(OC1CN2CCC1CC2)C1c2ccccc2C=Cc2ccccc21 (centres undefined) | inactive: -3.45%
COc1ccc(C(=O)NCC2(N3CCOCC3)CCCCC2)cc1OC | inactive: 5.75%
c1ccc(CN2CCC(Nc3ccccc3)CC2)cc1 | inactive: -11.5%
N#Cc1ccc(C(=O)NCC2(N3CCCCC3)CCCCC2)cc1 | inactive: -11.4%
